Experimental data published in patent US20040248764A1 (priority 2001, published 2004).

Tested on: healthy vines
Test: Treatment of healthy vines with citral (safety margin)
Settings: up to 2500 ppm vs 500 ppm

`CC(C)=CCCC(C)=CC=O` [citral, 3,7-dimethyl-2,6-octadien-1-al] gave a safety margin of at least 5 fold.
